Experiments:
[1] = biological target: T1, human opioid receptor-like (ORL-1) (Homo sapiens, UniProt P41146); test: In vitro ORL-1 receptor [35S]GTPγS functional assay; assay type: biochemical; conditions: procedure of Example 38; for EC50: read-out: GTPγS ORL-1 EC50 [mean ± SEM]
[2] = biological target: T2, human μ-opioid receptor (Homo sapiens, UniProt P35372); test: In vitro mu-opioid receptor binding assay ([3H]-diprenorphine displacement); conditions: read-out: Ki [Average ± Std Deviation] Opioid Receptor Mu; binding to mu-opioid receptor, procedure of Example 39
[3] = biological target: T1, human opioid receptor-like (ORL-1); test: In vitro ORL-1 receptor binding assay ([3H]-nociceptin displacement); conditions: read-out: Ki [Average ± Std Deviation] ORL-1; binding to ORL-1 receptor, procedure of Example 37
[4] = biological target: T2, human μ-opioid receptor; test: In vitro mu-opioid receptor [35S]GTPγS functional assay; assay type: biochemical; conditions: read-out: GTPγS Opioid Receptor EC50 Mu [mean ± SEM]; procedure of Example 40
[5] = biological target: T3, kappa opioid receptor (Homo sapiens, UniProt P41145); test: In vitro kappa-opioid receptor binding assay ([3H]-U69,593 displacement); conditions: read-out: Ki [Average ± Std Deviation] Opioid Receptor Kappa; binding to kappa-opioid receptor, procedure of Example 41
[6] = biological target: recombinant delta opioid receptor expressed in CHO-K1 cells (Homo sapiens, UniProt P41143); test: In vitro delta-opioid receptor binding assay ([3H]-Naltrindole displacement); conditions: read-out: Ki [Average ± Std Deviation] Opioid Receptor Delta; binding to delta-opioid receptor, procedure of Example 43
[7] = biological target: T3, kappa opioid receptor; test: In vitro kappa-opioid receptor [35S]GTPγS functional assay; conditions: read-out: GTPγS Opioid Receptor EC50 Kappa [mean ± SEM]; procedure of Example 42

## C[C@@H]1C[C@@H]2C[C@H](C1)C[C@@H](N1[C@@H]3CCC[C@H]1C[C@@H](n1c(=O)c(-c4ccc[nH]c4=O)nc4ccccc41)C3)C2
[1]
  GTPγS ORL-1 Emax [mean ± SEM]: 87.7 ± 1.9%
  EC50: 2.08 nM
[2]
  Ki: 33 nM
[3]
  Ki: 1.36 nM

## C[C@@H]1C[C@@H]2C[C@H](C1)C[C@@H](N1[C@@H]3CC[C@H]1C[C@@H](n1c(=O)c(-c4ccc[nH]c4=O)nc4ccccc41)C3)C2
[1]
  GTPγS ORL-1 Emax [mean ± SEM]: 57 ± 5%
  EC50: 72.1 nM
[2]
  Ki: 45.9 nM
[4]
  EC50: > 20000 nM
[5]
  Ki: 13.9 nM
[6]
  Ki: 6970 nM
[7]
  EC50: > 20000 nM
[3]
  Ki: 7.2 nM

## O=C(O)CN1CCN(c2nc3ccccc3n([C@H]3C[C@H]4CC[C@@H](C3)N4C3CCCCCCC3)c2=O)CC1=O
[1]
  GTPγS ORL-1 Emax [mean ± SEM]: 84 ± 1.2%
  EC50: 1300 nM
[2]
  Ki: 1600 nM
[5]
  Ki: 1360 nM
[6]
  Ki: 2740 nM
[3]
  Ki: 44.8 nM

## O=C1CN(c2nc3ccccc3n([C@H]3C[C@H]4CC[C@@H](C3)N4C3CCCCCCC3)c2=O)CCN1
[5]
  Ki: 25.9 nM
[6]
  Ki: > 20000 nM
[3]
  Ki: 14.6 nM

## O=c1[nH]cccc1-c1nc2ccccc2n([C@H]2C[C@H]3CC[C@@H](C2)N3[C@H]2C[C@@H]3CCC[C@@H](C3)C2)c1=O
[1]
  GTPγS ORL-1 Emax [mean ± SEM]: 36.5 ± 1.7%
  EC50: 35.7 nM
[2]
  Ki: 609 nM
[4]
  EC50: > 20000 nM
[5]
  Ki: 19.3 nM
[6]
  Ki: > 20000 nM
[7]
  EC50: > 20000 nM
[3]
  Ki: 17 nM

## O=c1[nH]cccc1-c1nc2ccccc2n([C@H]2C[C@H]3COC[C@@H](C2)N3[C@@H]2C[C@@H]3CCCC[C@@H](C3)C2)c1=O
[1]
  GTPγS ORL-1 Emax [mean ± SEM]: 54.3 ± 1.9%
  EC50: 86.1 nM
[2]
  Ki: 2460 nM
[5]
  Ki: 549 nM
[6]
  Ki: > 20000 nM
[7]
  EC50: > 20000 nM
[3]
  Ki: 31.2 nM

## O=c1nccc(-c2nc3ccccc3n([C@H]3C[C@H]4CCC[C@@H](C3)N4[C@H]3C[C@@H]4CCC[C@@H](C4)C3)c2=O)[nH]1
[1]
  GTPγS ORL-1 Emax [mean ± SEM]: 34.7 ± 3.8%
  EC50: 2 nM
[2]
  Ki: 522 nM
[4]
  EC50: > 20000 nM
[5]
  Ki: 77.9 nM
[6]
  Ki: 4350 nM
[7]
  EC50: > 20000 nM
[3]
  Ki: 1.69 nM

## O=c1c(N2CCNCC2)nc2ccccc2n1C1CCN(C2CCCCCCC2)CC1 [CC10, reference compound]
[1]
  EC50: 553 nM
[2]
  Ki: 1480 nM
[5]
  Ki: 73.5 nM
[6]
  Ki: 27700 nM
[3]
  Ki: 72.1 nM

## NC1CCN(c2nc3ccccc3n(C3CCN(C4CCCCCCC4)CC3)c2=O)CC1 [CC22, reference compound]
[1]
  EC50: 440 nM
[2]
  Ki: 3040 nM
[5]
  Ki: 30.4 nM
[6]
  Ki: 19400 nM
[3]
  Ki: 35.2 nM

## N[C@H]1CCN(c2nc3ccccc3n(C3CCN(C4CCCCCCC4)CC3)c2=O)C1 [CC39, reference compound]
[2]
  Ki: 624 nM
[5]
  Ki: 57.3 nM
[3]
  Ki: 8.6 nM

## N[C@@H]1CCN(c2nc3ccccc3n(C3CCN(C4CCCCCCC4)CC3)c2=O)C1 [CC51, reference compound]
[2]
  Ki: 512 nM
[5]
  Ki: 22 nM
[3]
  Ki: 4 nM

## O=c1[nH]c(=O)n(-c2nc3ccccc3n([C@H]3C[C@H]4CCC[C@@H](C3)N4[C@H]3C[C@@H]4CCC[C@@H](C4)C3)c2=O)cc1Br [Compound B16a, 1-(4-((1R,1′R,3r,3R,5S,5′S)-[3,9′-bi(9′-azabicyclo[3.3.1]nonan)]-3′-yl)-3-oxo-3,4-dihydroquinoxalin-2-yl)-5-bromopyrimidine-2,4(1H,3H)-dione]
[1]
  GTPγS ORL-1 Emax [mean ± SEM]: 14.3 ± 1.7%
  EC50: 11.9 nM
[3]
  Ki: 6.37 nM

## C[C@@H]1C[C@@H]2C[C@H](C1)C[C@@H](N1[C@@H]3CCC[C@H]1C[C@@H](n1c(=O)c(-n4ncc(=O)[nH]c4=O)nc4ccccc41)C3)C2 [Compound B34a, 2-(4-((1R,1′R,3r,3′R,5S,5′S,7S)-7-methyl-[3,9′-bi(9′-azabicyclo[3.3.1]nonan)]-3′-yl)-3-oxo-3,4-dihydroquinoxalin-2-yl)-1,2,4-triazine-3,5(2H,4H)-dione]
[1]
  GTPγS ORL-1 Emax [mean ± SEM]: 21.3 ± 2.7%
  EC50: 3.9 nM
[3]
  Ki: 2.26 nM

## Cc1nn(-c2nc3ccccc3n([C@H]3C[C@H]4CCC[C@@H](C3)N4[C@@H]3C[C@@H]4CCCC[C@@H](C4)C3)c2=O)c(=O)[nH]c1=O [Compound O10b, 2-(4-((1R,3R,5 S)-9-((1R,6S,8s)-bicyclo[4.3.1]decan-8-yl)-9-azabicyclo[3.3.1]nonan-3-yl)-3-oxo-3,4-dihydroquinoxalin-2-yl)-6-methyl-1,2,4-triazine-3,5(2H,4H)-dione]
[1]
  GTPγS ORL-1 Emax [mean ± SEM]: 14.3 ± 2.0%
  EC50: 17.1 nM
[3]
  Ki: 4.06 nM

## CC1(C)NC(=O)N(c2nc3ccccc3n([C@H]3C[C@H]4CCC[C@@H](C3)N4[C@@H]3C[C@@H]4CCCC[C@@H](C4)C3)c2=O)C1=O [Compound O22b, 3-(4-((1R,3R,5S)-9-((1R,6S,8s)-bicyclo[4.3.1]decan-8-yl)-9-azabicyclo[3.3.1]nonan-3-yl)-3-oxo-3,4-dihydroquinoxalin-2-yl)-5,5-dimethylimidazolidine-2,4-dione]
[1]
  GTPγS ORL-1 Emax [mean ± SEM]: 23.3 ± 1.2%
  EC50: 8 nM
[3]
  Ki: 2.4 nM

## O=c1cnn(-c2nc3ccccc3n([C@H]3C[C@H]4COC[C@@H](C3)N4[C@@H]3C[C@@H]4CCCC[C@@H](C4)C3)c2=O)c(=O)[nH]1 [Compound P9b, 2-(4-((1R,5S,7 S)-9-((1R,6S,8s)-bicyclo[4.3.1]decan-8-yl)-3-oxa-9-azabicyclo[3.3.1]nonan-7-yl)-3-oxo-3,4-dihydroquinoxalin-2-yl)-1,2,4-triazine-3,5(2H,4H)-dione]
[1]
  GTPγS ORL-1 Emax [mean ± SEM]: 34.3 ± 4.4%
[2]
  Ki: 10300 nM
[6]
  Ki: > 20000 nM

## O=C(O)Cn1cc(-c2nc3ccccc3n([C@H]3C[C@H]4CCC[C@@H](C3)N4[C@H]3C[C@@H]4CCC[C@@H](C4)C3)c2=O)ccc1=O [Compound U007, 2-(5-(4-((1R,1′R,3r,3′R,5S,5′S)-[3,9′-bi(9′-azabicyclo[3.3.1]nonan)]-3′-yl)-3-oxo-3,4-dihydroquinoxalin-2-yl)-2-oxopyridin-1(2H)-yl)acetic acid]
[1]
  GTPγS ORL-1 Emax [mean ± SEM]: 19 ± 2%
  EC50: 32 nM
[3]
  Ki: 9.16 nM

## O=C(O)Cn1ccc(-c2nc3ccccc3n([C@H]3C[C@H]4CCC[C@@H](C3)N4[C@H]3C[C@@H]4CCC[C@@H](C4)C3)c2=O)cc1=O [Compound U010, 2-(4-(4-((1R,1′R,3r,3R,5S,5′S)-[3,9′-bi(9′-azabicyclo[3.3.1]nonan)]-3′-yl)-3-oxo-3,4-dihydroquinoxalin-2-yl)-2-oxopyridin-1(2H)-yl)acetic acid]
[1]
  GTPγS ORL-1 Emax [mean ± SEM]: 16.6 ± 1.4%
  EC50: 18 nM
[3]
  Ki: 12.2 nM

## O=C(O)c1cc(-c2nc3ccccc3n([C@H]3C[C@H]4CCC[C@@H](C3)N4[C@@H]3C[C@@H]4CCCC[C@@H](C4)C3)c2=O)c[nH]c1=O [Compound U043, 5-(4-((1R,3R,5S)-9-((1R,6S,8s)-bicyclo[4.3.1]decan-8-yl)-9-azabicyclo[3.3.1]nonan-3-yl)-3-oxo-3,4-dihydroquinoxalin-2-yl)-2-oxo-1,2-dihydropyridine-3-carboxylic acid]
[1]
  GTPγS ORL-1 Emax [mean ± SEM]: 22.3 ± 1.2%
  EC50: 0.94 nM
[3]
  Ki: 0.23 nM

## O=c1[nH]nc(-c2nc3ccccc3n([C@H]3C[C@H]4CCC[C@@H](C3)N4[C@H]3C[C@@H]4CCC[C@@H](C4)C3)c2=O)[nH]1 [R6a(i)(i), 1-((1R,1′R,3r,3′R,5S,5′S)-[3,9′-bi(9′-azabicyclo[3.3.1]nonan)]-3′-yl)-3-(5-oxo-4,5-dihydro-1H-1,2,4-triazol-3-yl)quinoxalin-2(1H)-one]
[1]
  GTPγS ORL-1 Emax [mean ± SEM]: 23.7 ± 1.2%
  EC50: 5.6 nM
[5]
  Ki: 51.6 nM
[7]
  EC50: > 20000 nM
[3]
  Ki: 0.97 nM

## O=C(O)Cn1cccc(-c2nc3ccccc3n([C@H]3C[C@H]4CCC[C@@H](C3)N4[C@H]3C[C@@H]4CCC[C@@H](C4)C3)c2=O)c1=O [R15a(iii), 2-(3-(4-((1R,1′R,3r,3′R,5S,5′S)-[3,9′-bi(9′-azabicyclo[3.3.1]nonan)]-3′-yl)-3-oxo-3,4-dihydroquinoxalin-2-yl)-2-oxopyridin-1(2H)-yl)acetic acid]
[1]
  GTPγS ORL-1 Emax [mean ± SEM]: 22 ± 1%
  EC50: 106 nM
[3]
  Ki: 29.5 nM

## C[C@@H]1C[C@@H]2C[C@H](C1)C[C@@H](N1[C@@H]3CCC[C@H]1C[C@@H](n1c(=O)c(-c4cc(C(=O)O)c[nH]c4=O)nc4ccccc41)C3)C2 [R28a(i), 5-(4-((1R,1′R,3r,3′R,5S,5′S,7S)-7-methyl-[3,9′-bi(9′-azabicyclo[3.3.1]nonan)]-3′-yl)-3-oxo-3,4-dihydroquinoxalin-2-yl)-6-oxo-1,6-dihydropyridine-3-carboxylic acid]
[1]
  GTPγS ORL-1 Emax [mean ± SEM]: 18.5 ± 3.5%
  EC50: 39.7 nM
[3]
  Ki: 11.8 nM

## CC1(C)[C@H]2CC[C@@H](CCN3[C@@H]4CCC[C@H]3C[C@@H](n3c(=O)c(-c5ccc[nH]c5=O)nc5ccccc53)C4)[C@@H]1C2 [U55a(i), 1-((1R,3S,5S)-9-(2-((1S,2S,5S)-6,6-dimethylbicyclo[3.1.1]heptan-2-yl)ethyl)-9-azabicyclo[3.3.1]nonan-3-yl)-3-(2-oxo-1,2-dihydropyridin-3-yl)quinoxalin-2(1H)-one]
[1]
  GTPγS ORL-1 Emax [mean ± SEM]: 82.8 ± 2.7%
  EC50: 12.3 nM
[3]
  Ki: 2.27 nM
